Experimental data from patent US20240238269A1, “USE OF 5-NITRO-8-HYDROXYQUINOLINE” (Jiangsu Yahong Meditech Co., Ltd., priority 2021, published 2024).

How the values were obtained:
[1] = dog, in vivo
[2] = system: human papillomavirus (HPV); experiment: Antiviral activity against human papillomavirus (HPV), overall conclusion; assay type: cell-based; settings: inferred from conversion in dogs
Method: When the SI50 value>10, the compound was determined to be active against the virus.

## CC(C)C(=O)N1CCC[C@H]1C(=O)OCOc1ccc([N+](=O)[O-])c2cccnc12 [prodrug, (S)-(5-nitroquinolin-8-yloxy)methyl 1-isopropionylpyrrolidine-2-carboxylate]
[1]
  conversion to the active form 5-nitro-8-hydroxyquinoline: conversion to the active form 5-nitro-8-hydroxyquinoline was detected in circulating samples
[2]
  anti-HPV effect relative to 5-nitro-8-hydroxyquinoline: equivalent in anti-HPV effect
